## Antibody variant affinities, Ab-14 heavy chain, assay B

Reference: Li et al. 2023, doi:10.1038/s41467-023-39022-2. File: FLAb, binding data.

Target peptide (SARS-CoV-2 spike, HR2 region): PDVDLGDISGINAS

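The starting antibody came from a phage panning campaign against this peptide. The variants were designed computationally from a first round of random CDR variants and then made and measured. Several design methods are mixed in this list. AlphaSeq pools MATa yeast showing the antibodies with MATalpha yeast showing the peptide. The frequency of each diploid, read from paired DNA barcodes, reflects how well the two displayed proteins bind. A regression on co-assayed BCL2-family reference pairs converts the normalised counts of each replicate to an apparent Kd. There are six technical replicates.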

Parent scFv Ab-14: VH joined to VL by the linker GGGGSGGGGSGGGGS. Changes lie in the heavy chain CDRs alone.
VH: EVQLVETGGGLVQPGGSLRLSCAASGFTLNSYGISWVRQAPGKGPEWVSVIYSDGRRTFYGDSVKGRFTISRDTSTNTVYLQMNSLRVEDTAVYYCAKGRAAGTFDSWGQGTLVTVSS
VL: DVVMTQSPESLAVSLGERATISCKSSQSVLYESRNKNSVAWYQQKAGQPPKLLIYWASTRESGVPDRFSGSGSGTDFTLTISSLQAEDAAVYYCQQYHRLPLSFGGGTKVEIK

The parent's heavy chain CDRs are GFTLNSYGIS, VIYSDGRRTFYGDSVK, GRAAGTFDS; each variant's own CDRs replace them letter for letter.
This list holds designs with more than six substitutions.
Kd is apparent (estimated from mating counts) and averaged on the log scale over replicates with a signal. Smaller is tighter.
An entry "no signal" has no value in the source: the pair was not observed among the diploids in any replicate. This suggests poor binding but is not conclusive.
The list is sorted by this average, lowest first, undetected variants last.
In the paper, a design with two or fewer of six values counts as a poor binder.

Variant GFDLNEYGIS | VIYADGVRTAYVDSVK | GETAGTFDV gave 120 pM (6 of 6 replicates; controls 0 of 18).
Variant GFDIDEYGIS | VIYADGMRTAYTDSVK | GEAAGTFDA gave 130 pM (6 of 6 replicates; controls 0 of 18).
Variant GFDLESYGIS | VIYADGSRTAYADSVK | GNVAGTFNV gave 200 pM (5 of 6 replicates; controls 0 of 18).
Variant GFDLNEYGIS | VIYADGRRTFYADSVK | GEIAGTFDM gave 210 pM (6 of 6 replicates; controls 0 of 18).
Variant GFNLNEYGIS | VIYADGQRTFYADSVK | GGNAGTFDV gave 220 pM (6 of 6 replicates; controls 1 of 18).
Variant GFDLNEYGIS | VIYADGKRTAYSDSVK | GSNAGTFDM gave 260 pM (6 of 6 replicates; controls 0 of 18).
Variant GFDLNEYGIS | VIYADGKRTAYVDSVK | GETAGTFDQ gave 270 pM (6 of 6 replicates; controls 0 of 18).
Variant GFDLDEYGIS | VIYADGHRTFYADSVK | GTNAGTFDV gave 320 pM (6 of 6 replicates; controls 0 of 18).
Variant GFDLNEYGIS | VIYADGVRTAYSDSVK | GNVAGTFDQ gave 320 pM (6 of 6 replicates; controls 0 of 18).
Variant GFDLNEYGIS | VIYADGSRTAYADSVK | GTNAGTFDL gave 360 pM (6 of 6 replicates; controls 1 of 18).
Variant GFDLNEYGIS | VIYADGMRTAYADSVK | GTNAGTFDM gave 370 pM (6 of 6 replicates; controls 0 of 18).
Variant GFDLNEYGIS | VIYADGMRTAYSDSVK | GKNAGTFDI gave 400 pM (6 of 6 replicates; controls 1 of 18).
Variant GFDLNEYGIS | VIYADGRRTAYQDSVK | GTNAGTFDQ gave 450 pM (6 of 6 replicates; controls 0 of 18).
Variant GFDLNEYGIS | VIYADGRRTAYIDSVK | GEVAGTFDA gave 450 pM (6 of 6 replicates; controls 0 of 18).
Variant GFDLNEYGIS | VIYADGQRTAYSDSVK | GNQAGTFDL gave 470 pM (6 of 6 replicates; controls 0 of 18).
Variant GFDLNEYGIS | VIYADGRRTFYIDSVK | GEIAGTFNI gave 500 pM (6 of 6 replicates; controls 0 of 18).
Variant GFDLNEYGIS | VIYADGRRTFYIDSVK | GTNAGTFDE gave 670 pM (6 of 6 replicates; controls 0 of 18).
Variant GFDLNEYGIS | VIYADGMRTAYADSVK | GQTAGTFDI gave 760 pM (6 of 6 replicates; controls 0 of 18).
Variant GFDLNEYGIS | VIYADGMRTAYADSVK | GNNAGTFDV gave 890 pM (6 of 6 replicates; controls 0 of 18).
Variant GFDLDEYGIS | VIYADGSRTVYADSVK | GENAGTFDV gave 1.3 nM (6 of 6 replicates; controls 1 of 18).
Variant GFNLNEYGIS | VIYADGMRTFYTDDVK | GEVAGTFDL gave 1.8 nM (6 of 6 replicates; controls 0 of 18).
Variant GFDLNEYGIS | VIYADGMRTAYADDVK | GENAGTFDI gave 2.2 nM (6 of 6 replicates; controls 0 of 18).
Variant GFDLDEYGIS | VIYADGMRTAYADKVK | GNNAGTFDI gave 2.6 nM (6 of 6 replicates; controls 0 of 18).
Variant GNNLNEYGIS | VIYADGQRTSYASDVK | GDIRGSFDS gave 85 nM (2 of 6 replicates; controls 2 of 18).
Variant GFEIQEFGIS | VIYADGIRTNYSENVK | GTLAGTFTT gave 110 nM (1 of 6 replicates; controls 0 of 18).
Variant GNDLDEYGIS | VIYADGSRTSYIDKVK | GLVGGQLIV gave 130 nM (1 of 6 replicates; controls 0 of 18).
Variant GQSLDEYGIS | VIYADGQRKSYMDSVK | GNGTGTLFD gave 280 nM (1 of 6 replicates; controls 0 of 18).
Variant GFDLDEYGIS | VIYADGVRTAYQDDVK | GQEAGFLYT gave no signal (0 of 6 replicates; controls 1 of 18).
Variant GRNLDEYGIS | VIYADGQRTSYRDNVK | GANSGHLDM gave no signal (0 of 6 replicates; controls 0 of 18).
Variant GFDLEEYGIS | VIYADGVRTSYVDQVK | GESGGAYYT gave no signal (0 of 6 replicates; controls 0 of 18).
Variant GFQLDEFGIS | VIYADGKRSSYVDDVK | GETTGIFKV gave no signal (0 of 6 replicates; controls 0 of 18).
Variant GFQLDEYGIS | VIYADGLRTAYKDTVK | GSDTGLEMF gave no signal (0 of 6 replicates; controls 0 of 18).
Variant GFKLDEYGIS | VIYADGIRVFYADSVK | GGFDGYKFI gave no signal (0 of 6 replicates; controls 0 of 18).
Variant GFNLEEYGIS | VIYADGVRAAYAENVK | AGGNVIAIG gave no signal (0 of 6 replicates; controls 1 of 18).
Variant GQDLSEYGIS | VIYADGVRRSYANSVK | GNTSGNFSQ gave no signal (0 of 6 replicates; controls 0 of 18).

The first 2 entries again:

The variant GFDLNEYGIS | VIYADGVRTAYVDSVK | GETAGTFDV showed 120 pM (6 of 6 replicates; controls 0 of 18).
The variant GFDIDEYGIS | VIYADGMRTAYTDSVK | GEAAGTFDA showed 130 pM (6 of 6 replicates; controls 0 of 18).

As a blank, each scFv also met three strains without target: over all heavy chain designs, 1% of these pairings were detected, typically at 120 nM and seldom below 7.0 nM. The control count says in how many pairings with the empty strains this scFv gave a signal.
Values of this round are not directly comparable with the first-round values of the same sequences.